The values below are quoted from earlier work in patent US6083922A (priority 1997, dated 2000).

The conditions of the data set: previous studies; cited from earlier work.

Turning to `NC[C@H]1O[C@H](O[C@H]2[C@H](O)[C@@H](O[C@H]3O[C@H](CO)[C@@H](O)[C@H](N)[C@H]3O)[C@H](N)C[C@@H]2N)[C@H](N)C[C@@H]1O` [tobramycin], the “fold higher concentration needed to overcome sputum inhibition” value is 5-10 times.
